Test system: NMRI mice
Test: Mouse skin wound model (punch-through ear holes)
Details: dermal cream containing 1% CPX, daily

Cc1cc(C2CCCCC2)n(O)c(=O)c1.NCCO [CPX, 6-cyclohexyl-1-hydroxy-4-methyl-2(1H)-pyridone 2-aminoethanol salt]
reddening on the healthy skin area of the same ear: never observed

Reference: US20040014794A1, “Use of hydroxypyridone-derivatives in wound healing” (priority 2002, published 2004)
